Assay results from paper PMC4906375, “Contribution of Amphipathicity and Hydrophobicity to the Antimicrobial Activity and Cytotoxicity of β-Hairpin Peptides” (ACS Infectious Diseases, 2016).
≈ marks a conversion by molar mass, not a printed value. Where two headings read alike, the source gives them in different places.

Key:
C. albicans ATCC 90028 = format: cell-based, Candida albicans; conditions: n = 4
Method: (§1) Both antibacterial and antifungal MIC assays were performed by a broth microdilution plate based method as per CLSI guidelines for antimicrobial susceptibility testing.[53],[54] […] Full assay details are included in the Supporting Information with a full list of strains tested in Table S1.
(§2) Antibacterial assay (Minimum Inhibitory Concentration [MIC]).
(§3) MIC assay was performed by a broth microdilution plate based method as per CLSI guidelines for antimicrobial susceptibility testing of aerobic bacteria.1 Compounds were prepared at 1.28 mg/mL solution in water. The tested strains, Table S1, were cultured in Luria broth (LB) (In Vitro Technologies, USB75852), at 37 °C overnight. A sample of culture was then diluted 40Pfold in fresh Muller Hinton broth (MHB) (Bacto laboratories, 211443) and incubated at 37 °C for 1.5P2 h. The compounds were serially diluted twoPfold across the wells, with compound concentrations ranging from 0.015 µg/mL to 512 µg/mL, plated in duplicate. […]
(§4) µg/mL to 0.12 µg/mL and compounds from 128 µg/mL to 0.06 µg/mL with final volumes of 50 µL per well, plated in duplicate. […] Candida albicans MICs were determined by measuring the absorbance at OD530. […]
(§5) Cryptococcus neoformans MICs were determined by measuring the absorbance at OD570P600. […]

[1] = system: C. neoformans ATCC 208821; format: cell-based, Cryptococcus neoformans; conditions: n = 4
Method: as §1, §2, §3, §4, §5

[2] = system: E. coli ATCC 700926 (K12); format: cell-based, Escherichia coli; conditions: n = 4
Method: as §1, §2
(§6) MIC assay was performed by a broth microdilution plate based method as per CLSI guidelines for antimicrobial susceptibility testing of aerobic bacteria.1 Compounds were prepared at 1.28 mg/mL solution in water. The tested strains, Table S1, were cultured in Luria broth (LB) (In Vitro Technologies, USB75852), at 37 °C overnight. A sample of culture was then diluted 40Pfold in fresh Muller Hinton broth (MHB) (Bacto laboratories, 211443) and incubated at 37 °C for 1.5P2 h. The compounds were serially diluted twoPfold across the wells, with compound concentrations ranging from 0.015 µg/mL to 512 µg/mL, plated in duplicate. The resultant midPlog phase cultures were diluted to the final concentration of 1×10^6 CFU/mL, then 50 µL was added to each well of the compoundP containing 96Pwell plates (Corning 3641, NonPbinding Surface [NBS]), giving a final compound concentration range of 0.008 µg/mL to 256 µg/mL and 5x10^5 CFU/mL. All the plates were covered and incubated at 37 °C for 18 h. MICs were determined visually, being defined as the lowest concentration showing no visible growth. Resazurin was added at 0.001% final concentration to each well and incubated for 2 h before MICs were rePread for confirmation using the colour change from blue to pink to indicate wells containing viable cells. The resazurin assay was added in some wells where some form of precipitate was present in otherwise clear wells, making it difficult to ascertain which wells had visible […]
(§7) Antifungal assay (Minimum Inhibitory Concentration [MIC]). […]

[3] = system: E. coli ATCC 25922 (control strain); format: cell-based, Escherichia coli; conditions: n = 4
Method: as §1, §2, §6, §7

E. coli MB 4902 (ΔlpxC) = format: cell-based, Escherichia coli; conditions: n = 4
Method: as §1, §2, §6, §7

[4] = Cytotoxicity, Alamar Blue (resazurin) assay; format: cell-based, human; conditions: human, HEK293 cells
Method: (§8) Cytotoxicity to HEK293 and HepG2 cells was determined using the Alamar Blue (resazurin) assay,[55],[56] with 24 h of incubation and either 1 or 10% serum concentration. Full assay details are included in the Supporting Information.
(§9) Cytotoxicity. Cytotoxicity to HEK293 and HepG2 cells was determined using the Alamar Blue (resazurin) assay,3, 4 For the assays supplemented with 1 % FBS as final concentration the cells were seeded one day prior to the assay (3,000 per 20 µL for HEK293 and 4,000 per 20 µL for HepG2) with DMEM + 2 % FBS. The compounds were prepared as described below, using DMEM with no FBS instead to give the final FBS concentration of 1 %.
(§10) The highest concentration the compounds were tested was 300 µg/mL. A dilution series of 1:3 fold steps in DMEM (GIBCOPInvitrogen, cat. no. 11995P073) + 10 % FBS was created (concentration range of 600 µg/mL – 0.28 µg/mL), and 20 µL of these 2x concentrated compound dilutions were added in duplicates to wells of a black wall, clear bottom 384Pwells cell culture plate. For the assays with 1 % FBS the compounds in 0 % FBS were added to the existing cell plates in 2 % FBS. 200 µM Tamoxifen (Sigma T5648) served as negative control and in addition a serial dilution of tamoxifen, starting at 200 µM (74 µg/mL), was included as a dose response control (1 in 2 dilution series for tamoxifen). For the assay with 10 % FBS, HepG2 cells were seeded at 5000 cells per well, in a volume of 20 µL in DMEM medium + 10 % of FBS and added to the 20 µL of compound solution (total volume of 40 µL), resulting in a final compound concentration range of 300 µg/mL to 0.14 µg/mL.
(§11) Cells were incubated together with the compounds for 20 h at 37 °C, 5 % CO2.
(§12) After the incubation, 5 µL of 100 µM (25 µg/mL) resazurin dissolved in PBS (final concentration was approximately 11 µM) was added to each well. The plates were then incubated for 3 h at 37 °C, 5 % CO2. The fluorescence intensity was read using the TECAN Infinite M1000 PRO with excitation/emission 560/590. The data was analysed by Graph Pad Prism software. […]

HEK293 cells = assay: Cytotoxicity, Alamar Blue (resazurin) assay; format: cell-based, human; conditions: kidney cells (HEK293) vs liver cells (HepG2)
Method: as §8, §9, §10, §11, §12

[5] = Plasma protein binding, ultrafiltration; format: in vitro ADME; conditions: 100% human plasma, read-out: PPB (%) (converted)
Method: Plasma protein binding was performed using an ultrafiltration method.[58]
Plasma protein binding assay
Plasma protein binding was performed using an Ultrafiltration method.13 Fresh frozen human plasma was pooled from O Negative (Product number 1274512) blood from the R & D division of the Australian Red Cross Blood Services (Brisbane). Stock solutions (20 mg/mL) of the test compounds were prepared in H2O. Test compounds (40 µg/mL) were incubated in 100 % human plasma at 37 °C for 30 min (1 mL volume). For unfiltered samples, an aliquot (50 µL) was removed, diluted with PBS (50 µL) and quenched with icePcold precipitating solution comprising 0.5 µM carbutamide MS internal standard in acetonitrile : methanol : formic acid (1: 1 : 0.001). Samples were incubated at 4 °C for 30 min then centrifuged at 14000 × g for 8 min, with the clear supernatant transferred to a vial for LC/MS/MS analysis.
For filtered samples, the plasma sample (250 µL) was filtered using Amicon UltraP0.5 Centrifugal Filter Devices 30K NMWL at 14000 × g for 7 min and then an aliquot (50 µL) was processed as described for unfiltered samples. The fraction of unbound compound was calculated by determining the concentration of the filtered sample and the concentration of unfiltered sample. All samples were performed in triplicate with sulfamethoxazole as a […]

A. baumannii ATCC 19606 = format: cell-based, Acinetobacter baumannii; conditions: n = 4
Method: as §1, §2
as §6, with “h.” for “h. MICs were determined visually, being defined as the lowest concentration showing no visible growth. Resazurin was added at 0.001% final concentration to each well and incubated for 2 h before MICs were rePread for confirmation using the colour change from blue to pink to indicate wells containing viable cells. The resazurin assay was added in some wells where some form of precipitate was present in otherwise clear wells, making it difficult to ascertain which wells had visible”

Hemolysis assay = conditions: hemolysis (%) at 300 μg/mL, human erythrocytes, 3 h, relative to 100% hemolysis by 1% Triton X-100
human erythrocytes = assay: Hemolysis assay; conditions: 3 h, relative to 100% hemolysis by 1% Triton X-100
[6] = Cytotoxicity, Alamar Blue (resazurin) assay; format: cell-based; conditions: human, HepG2 cells
Method: as §8, §9
The highest concentration the compounds were tested was 300 µg/mL. A dilution series of 1:3 fold steps in DMEM (GIBCOPInvitrogen, cat. no. 11995P073) + 10 % FBS was created (concentration range of 600 µg/mL – 0.28 µg/mL), and 20 µL of these 2x concentrated compound dilutions were added in duplicates to wells of a black wall, clear bottom 384Pwells cell culture plate. […]
as §12, with “The plates were then incubated for 3 h at 37 °C, 5 % CO2.” left out

P. aeruginosa ATCC 27853 = format: cell-based, Pseudomonas aeruginosa; conditions: n = 4
Method: as §1, §2
as §6, with “h.” for “h. MICs were determined visually, being defined as the lowest concentration showing no visible growth. Resazurin was added at 0.001% final concentration to each well and incubated for 2 h before MICs were rePread for confirmation using the colour change from blue to pink to indicate wells containing viable cells. The resazurin assay was added in some wells where some form of precipitate was present in otherwise clear wells, making it difficult to ascertain which wells had visible”

[7] = system: E. coli ATCC 25922 cytoplasmic membrane; assay: Inner membrane permeability measured by SYTOX green fluorescence emission; conditions: same E. coli ATCC 25922 strain
B. subtilis ATCC 6051 = format: cell-based, Bacillus subtilis
Method: as §1, §2
as §6, with “h.” for “h. MICs were determined visually, being defined as the lowest concentration showing no visible growth. Resazurin was added at 0.001% final concentration to each well and incubated for 2 h before MICs were rePread for confirmation using the colour change from blue to pink to indicate wells containing viable cells. The resazurin assay was added in some wells where some form of precipitate was present in otherwise clear wells, making it difficult to ascertain which wells had visible”

[8] = system: K. pneumoniae BAA 2146 (NDM-1 pos); format: cell-based, Klebsiella pneumoniae; conditions: n = 4
Method: as §1, §2, §6
(§13) Antifungal assay (Minimum Inhibitory Concentration [MIC]). MIC assay was performed by a broth microdilution plate based method as per CLSI guidelines for antimicrobial susceptibility testing.2 Fungi strains, Table S1, were cultured for 3 days on Yeast ExtractPPeptone Dextrose (YPD) (SigmaPAldrich, Y1500) agar at 30 °C. A yeast suspension of 1x10^6 to 5x10^6 CFU/mL was prepared from five colonies. These stock suspensions were diluted with Yeast Nitrogen Base (YNB) (Becton Dickinson, 233520) broth to a final concentration of 2.5 ×10^3 CFU/mL. All samples, compounds and standards were plated in 96Pwell plates (Corning 3641, NonPbinding Surface [NBS]), by adding 10 µL of 1.28 mg/mL stock solution to each well and 90 µL of media. Then, the samples were serial diluted (1:2) in 12 concentrations across the plate. The standard antifungal ranged from 256

K. pneumoniae ATCC 13883 = format: cell-based, Klebsiella pneumoniae; conditions: n = 4
Method: as §1, §2, §6, §13

[9] = system: K. pneumoniae ATCC 700603 (MDR); format: cell-based, Klebsiella pneumoniae
Method: as §1, §2, §6, §13

[10] = system: S. aureus ATCC 43300 (MRSA); format: cell-based, Staphylococcus aureus; conditions: n = 4
Method: as §1, §2
as §6, with “h.” for “h. MICs were determined visually, being defined as the lowest concentration showing no visible growth. Resazurin was added at 0.001% final concentration to each well and incubated for 2 h before MICs were rePread for confirmation using the colour change from blue to pink to indicate wells containing viable cells. The resazurin assay was added in some wells where some form of precipitate was present in otherwise clear wells, making it difficult to ascertain which wells had visible”

CC(C)C[C@@H]1NC(=O)[C@H](CCCNC(=N)N)NC(=O)[C@H](CCCNC(=N)N)NC(=O)[C@@H](NC(=O)[C@@H]2CCC(=O)N2)CSSC[C@@H](C(=O)N[C@@H](CCCNC(=N)N)C(=O)NCC(=O)N[C@@H](CCCNC(=N)N)C(N)=O)NC(=O)[C@H](Cc2ccc(O)cc2)NC(=O)[C@H]([C@@H](C)O)NC(=O)[C@H](C(C)C)NC(=O)[C@@H]2CSSC[C@H](NC1=O)C(=O)N[C@@H](Cc1ccc(O)cc1)C(=O)N[C@@H](CCCCN)C(=O)N[C@@H](CCC(N)=O)C(=O)N[C@@H](CCCNC(=N)N)C(=O)N2 [gomesin]
MIC (C. albicans ATCC 90028): 16 µg/mL (≈ 7.05 µM)
MIC [1]: 2 µg/mL (≈ 0.881 µM)
MIC [2]: 8 µg/mL (≈ 3.52 µM)
MIC [3]: 16 µg/mL (≈ 7.05 µM)
MIC (E. coli MB 4902 (ΔlpxC)): 4 µg/mL (≈ 1.76 µM)
CC50 at 24 h ([4]; HEK293, 1% FBS, read-out: cytotoxicity HEK293 1% FBS): 102 ± 1.1 µg/mL (≈ 45.1 µM)
CC50 at 24 h ([4]; HEK293, 10% FBS, read-out: cytotoxicity HEK293 10% FBS): 116 ± 25.1 µg/mL (≈ 51.1 µM)
fold more toxicity toward HEK293 than HepG2 (HEK293 cells): approximately 2 fold
fraction unbound [5]: 0.13
MIC (A. baumannii ATCC 19606): 16 µg/mL (≈ 7.05 µM)
hemolysis (Hemolysis assay): 4%
hemolysis (%) at 300 μg/mL (human erythrocytes): 4.4 ± 0.1%
CC50 at 24 h ([6]; HepG2, 1% FBS, read-out: cytotoxicity HepG2 1% FBS): 162.4 ± 1.1 µg/mL (≈ 71.5 µM)
CC50 at 24 h ([6]; HepG2, 10% FBS, read-out: cytotoxicity HepG2 10% FBS): 220 ± 73.3 µg/mL (≈ 96.8 µM)
MIC (P. aeruginosa ATCC 27853): 16 µg/mL (≈ 7.05 µM)
permeabilization concentration relative to MIC [7]: lower concentration than their MIC
MIC (B. subtilis ATCC 6051; B. subtilis ATCC 6051, n = 4): 2 µg/mL (≈ 0.881 µM)
fold more potent (B. subtilis ATCC 6051; B. subtilis and C. neoformans vs any other strains of bacteria and fungi): 2–10 fold
MIC [8]: 32 µg/mL (≈ 14.1 µM)
MIC (K. pneumoniae ATCC 13883): 16 µg/mL (≈ 7.05 µM)
fold reduction of activity ([9]; K. pneumoniae (ATCC 700603, MDR) and S. aureus (ATCC 43300, MRSA) vs other strains): 4–8 fold
MIC ([9]; K. pneumoniae ATCC 700603 (MDR), n = 4): 64 µg/mL (≈ 28.2 µM)
MIC [10]: 128 µg/mL (≈ 56.4 µM)
